Results reported in patent US20240383869A1, “ARYLACETYL INHIBITORS OF TG2 AND USES THEREOF” (UNIVERSITY OF OTTAWA, priority 2021, published 2024).

What was measured:
MDCK − MDR1 = test: MDCK-MDR1 permeability; assay type: in vitro ADME
P-gp (MDR1) = test: MDCK-MDR1 permeability; assay type: in vitro ADME; conditions: dog, MDCK-MDR1
[1] = system: TG2 relative to other human transglutaminases; conditions: in vitro
hTG2 = biological target: T1, hTG2 (Homo sapiens, UniProt P21980); test: biochemical
T1 sequence (P21980 1-687): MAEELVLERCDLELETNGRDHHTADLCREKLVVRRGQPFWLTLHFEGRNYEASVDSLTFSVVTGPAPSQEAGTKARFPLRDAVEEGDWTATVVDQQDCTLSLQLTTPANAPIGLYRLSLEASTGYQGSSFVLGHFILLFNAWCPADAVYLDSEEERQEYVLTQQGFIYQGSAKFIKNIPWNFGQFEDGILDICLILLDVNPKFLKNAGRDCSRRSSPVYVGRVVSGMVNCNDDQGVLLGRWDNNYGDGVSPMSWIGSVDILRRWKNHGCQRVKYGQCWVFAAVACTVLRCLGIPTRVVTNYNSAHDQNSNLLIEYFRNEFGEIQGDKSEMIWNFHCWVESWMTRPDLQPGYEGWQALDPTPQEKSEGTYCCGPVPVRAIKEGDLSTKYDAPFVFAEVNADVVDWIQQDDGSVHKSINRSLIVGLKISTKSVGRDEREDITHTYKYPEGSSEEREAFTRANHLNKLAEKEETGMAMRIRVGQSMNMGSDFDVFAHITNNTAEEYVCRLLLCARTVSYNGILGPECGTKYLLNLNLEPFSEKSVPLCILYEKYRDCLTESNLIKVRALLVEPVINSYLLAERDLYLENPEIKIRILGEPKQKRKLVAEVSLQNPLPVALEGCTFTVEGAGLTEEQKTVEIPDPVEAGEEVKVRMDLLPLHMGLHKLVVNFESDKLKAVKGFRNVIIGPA
Procedure: The ability of the compounds to inhibit TG2 transamidase activity and the kinetics of TG2 inhibition were investigated using a colorimetric activity assay, as follows:
Colorimetric transamidase activity assay. The activities of hTG1, hTG2 and hTG6 were measured via a colorimetric assay using the chromogenic substrate Cbz-Glu(γ-p-nitrophenyl ester)Gly (AL5), as described (Leblanc, A. et al., “Kinetic studies of guinea pig liver transglutaminase reveal a general-base-catalyzed deacylation mechanism.” Biochemistry 2001, 40 (28), 8335-8342). Assays were conducted at 25° C. in 50 mM MOPS buffer (pH 6.95) containing 7.5 mM CaCl2. […] The substrate AL5 was prepared in as a stock solution in DMSO such that the final concentration of this co-solvent was constant at 2.5% v/v. Stock solutions of the inhibitors were made in water ranging in concentration from 100-500 μM. The reaction was initiated with the addition of enzyme, 0.10 μM hTG1, 0.25 μM hTG2 (4.6 mU/mL) or 0.32 μM hTG6. Formation of hydrolysis product, p-nitrophenolate (pNP), was monitored at 405 nm in a polystyrene 96-well microplate using a BioTek Synergy 4 plate reader. The observed first-order rate constants of inactivation (kobs) were determined via non-linear regression fit to a mono-exponential model (Eqn 1) of absorbance versus time curves. […]

SMILES: C=CC(=O)NCCCC[C@H](NC(=O)Cc1ccccc1F)C(=O)N1CCN(C(=O)c2cccc3ccccc23)CC1 [Inhibitor 72, (S)-N-(6-(4-(1-naphthoyl)piperazin-1-yl)-5-(2-(2-fluorophenyl)acetamido)-6-oxohexyl)acrylamide]
- MDCK − MDR1 Efflux Ratio (MDCK − MDR1): 61.7
- efflux ratio (P-gp (MDR1)): > 50
- selectivity in reaction with TG2 relative to other human transglutaminases [1]: excellent selectivity
- kinact (hTG2; fit to saturation kinetics model, 25° C., pH 6.95, 100 μM AL5): 0.00767 s⁻¹
- kinact/KI (hTG2; pH 6.95): 7380 M⁻¹ s⁻¹
